Assay: UV absorbance spectroscopy, A280/A350 ratio as indicator of solubility
Format: physicochemical
Conditions: for A280/A350 ratio F106: lipopeptide 1 mg/mL in F106, diluted from 20 mg/mL DMSO stock; for A280/A350 ratio F111: lipopeptide 1 mg/mL in F111, diluted from 20 mg/mL DMSO stock
Method: UV absorbance spectroscopy UV absorbance measurements were performed to determine the peptide concentration and the A280/A350 ratio. For Pam3Cys.M2e (FIG. 1) the peptide concentration was determined using the following equation.
To determine the effect of polysorbate-80 (PS-80) and hydroxypropyl-ÿ-cyclodextrin (HPBCD) on the solubility of a composition comprising a lipopeptide (Pam3Cys) and an antigen (M2e) (the Pam3Cys.M2e fusion protein), four formulations (the components of which are shown in the Table 1, supra) were prepared, each containing 1 mg/mL Pam3Cys.M2e. Pam3Cys.M2e was dispensed into each formulation at room temperature and mixed by vortexing. After mixing, the UV absorbance spectrum of Pam3Cys.M2e was determined in each formulation, compared to the same formulation without Pam3Cys.M2e as the blank. The UV absorbance of Pam3Cys.M2e at 280 nm is due entirely to the presence of tryptophan in the peptide sequence. […] Therefore, a higher A280/A350 absorbance ratio is indicative of higher solubility.

Row | Compound | A280/A350 ratio F106 | A280/A350 ratio F111
1 | CCCCCCCCCCCCCCCC(=O)N[C@@H](CSCC(COC(=O)CCCCCCCCCCCCCCC)OC(=O)CCCCCCCCCCCCCCC)C(=O)N[C@@H](CCC(=O)O)C(=O)N[C@@H](C)C(=O)N[C@@H](CCC(=O)O)C(=O)N1CCC[C@H]1C(=O)N1CCC[C@H]1C(=O)N[C@@H](Cc1ccccc1)C(=O)NCC(=O)N[C@@H](CC(=O)O)C(=O)N[C@@H](CO)C(=O)N[C@@H](Cc1ccc(O)cc1)C(=O)N[C@H](C(=O)N[C@H](C(=O)N[C@H](C(=O)NCC(=O)N[C@H](C(=O)N[C@@H](CCC(=O)O)C(=O)N1CCC[C@H]1C(=O)N[C@@H](CCC(N)=O)C(=O)N[C@@H](CCC(N)=O)C(=O)N[C@@H](CC(C)C)C(=O)N[C@@H](CCCCN)C(=O)N[C@@H](CC(C)C)C(=O)N[C@@H](CC(N)=O)C(=O)N[C@@H](Cc1c[nH]c2ccccc12)C(=O)N[C@@H](Cc1ccccc1)C(=O)N[C@@H](CCCCN)C(=O)N[C@@H](CCCCN)C(=O)O)C(C)C)[C@@H](C)CC)[C@@H](C)CC)[C@@H](C)CC (stereo partly drawn) [Pam3Cys.DEN.1] | 11.8 | 14.7
2 | CCCCCCCCCCCCCCCC(=O)N[C@@H](CSCC(COC(=O)CCCCCCCCCCCCCCC)OC(=O)CCCCCCCCCCCCCCC)C(=O)N[C@@H](CCC(=O)O)C(=O)N[C@@H](CCSC)C(=O)N[C@@H](CCC(=O)O)C(=O)N1CCC[C@H]1C(=O)N1CCC[C@H]1C(=O)N[C@@H](Cc1ccccc1)C(=O)NCC(=O)N[C@@H](CC(=O)O)C(=O)N[C@@H](CO)C(=O)N[C@@H](Cc1ccc(O)cc1)C(=O)N[C@H](C(=O)N[C@H](C(=O)N[C@H](C(=O)NCC(=O)N[C@@H](CCSC)C(=O)NCC(=O)N[C@@H](CC(=O)O)C(=O)N[C@@H](CCCCN)C(=O)N[C@@H](CCC(N)=O)C(=O)N[C@H](C(=O)N[C@@H](CC(N)=O)C(=O)N[C@@H](Cc1c[nH]cn1)C(=O)N[C@@H](Cc1c[nH]cn1)C(=O)N[C@@H](Cc1c[nH]c2ccccc12)C(=O)N[C@@H](Cc1c[nH]cn1)C(=O)N[C@@H](CCCCN)C(=O)N[C@@H](C)C(=O)O)[C@@H](C)CC)C(C)C)C(C)C)[C@@H](C)CC (stereo partly drawn) [Pam3Cys.JEE.1] | 27.1 | 31.8
3 | CCCCCCCCCCCCCCCC(=O)N[C@@H](CSCC(COC(=O)CCCCCCCCCCCCCCC)OC(=O)CCCCCCCCCCCCCCC)C(=O)N[C@@H](CCC(=O)O)C(=O)N[C@@H](CC(C)C)C(=O)N[C@@H](CCC(=O)O)C(=O)N1CCC[C@H]1C(=O)N1CCC[C@H]1C(=O)N[C@@H](Cc1ccccc1)C(=O)NCC(=O)N[C@@H](CC(=O)O)C(=O)N[C@@H](CO)C(=O)N[C@@H](Cc1ccc(O)cc1)C(=O)N[C@H](C(=O)N[C@H](C(=O)N[C@H](C(=O)NCC(=O)N[C@@H](CCCNC(=N)N)C(=O)NCC(=O)N[C@@H](CCC(=O)O)C(=O)N[C@@H](CCC(N)=O)C(=O)N[C@@H](CCC(N)=O)C(=O)N[C@H](C(=O)N[C@@H](CC(N)=O)C(=O)N[C@@H](Cc1c[nH]cn1)C(=O)N[C@@H](Cc1c[nH]cn1)C(=O)N[C@@H](Cc1c[nH]c2ccccc12)C(=O)N[C@@H](Cc1c[nH]cn1)C(=O)N[C@@H](CCCCN)C(=O)N[C@@H](CO)C(=O)O)[C@@H](C)CC)C(C)C)C(C)C)[C@@H](C)CC (stereo partly drawn) [Pam3Cys.WNE.1] | 6.8 | 6.4

From patent publication US20090136537A1, “Lipopeptide compositions and methods of use therof” (priority 2005, published 2009)
